pIC50: −log10 of the molar value.
Molecular target: T1, Protein disulfide-isomerase (Bos taurus, UniProt P05307)
T1 sequence (P05307 whole entry): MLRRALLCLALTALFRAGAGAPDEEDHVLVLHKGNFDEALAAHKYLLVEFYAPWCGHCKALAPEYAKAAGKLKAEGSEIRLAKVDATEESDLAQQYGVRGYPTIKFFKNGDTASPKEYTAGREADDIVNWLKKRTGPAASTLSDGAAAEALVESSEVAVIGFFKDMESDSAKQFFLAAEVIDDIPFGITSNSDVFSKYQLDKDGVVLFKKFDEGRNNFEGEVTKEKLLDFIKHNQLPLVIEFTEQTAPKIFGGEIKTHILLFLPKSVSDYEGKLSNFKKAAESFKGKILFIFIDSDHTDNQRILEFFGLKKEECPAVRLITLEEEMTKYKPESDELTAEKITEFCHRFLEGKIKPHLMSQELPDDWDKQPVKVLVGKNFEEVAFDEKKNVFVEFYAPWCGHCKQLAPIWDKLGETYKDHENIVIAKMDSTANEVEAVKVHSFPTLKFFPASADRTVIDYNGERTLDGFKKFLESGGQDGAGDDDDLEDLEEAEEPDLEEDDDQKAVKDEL
Assay: Irreversible inhibition of bovine PDI

pIC50: 5.82
SMILES: C#CCOC(=O)C1(C)c2[nH]c3ccccc3c2CCN1C(=O)CCl (stereo unspecified)

Reference: ChEMBL document CHEMBL4610026, “Design, synthesis and evaluation of protein disulfide isomerase inhibitors with nitric oxide releasing activity” (Bioorg Med Chem Lett, 2020)
